Measurements published in patent EP4635949A1 (Jiangsu NHWA Pharmaceutical Co., Ltd, priority 2022, dated 2024).

Amino acid sequences for entries named in this document (tags omitted).
UniProt O43614, whole entry: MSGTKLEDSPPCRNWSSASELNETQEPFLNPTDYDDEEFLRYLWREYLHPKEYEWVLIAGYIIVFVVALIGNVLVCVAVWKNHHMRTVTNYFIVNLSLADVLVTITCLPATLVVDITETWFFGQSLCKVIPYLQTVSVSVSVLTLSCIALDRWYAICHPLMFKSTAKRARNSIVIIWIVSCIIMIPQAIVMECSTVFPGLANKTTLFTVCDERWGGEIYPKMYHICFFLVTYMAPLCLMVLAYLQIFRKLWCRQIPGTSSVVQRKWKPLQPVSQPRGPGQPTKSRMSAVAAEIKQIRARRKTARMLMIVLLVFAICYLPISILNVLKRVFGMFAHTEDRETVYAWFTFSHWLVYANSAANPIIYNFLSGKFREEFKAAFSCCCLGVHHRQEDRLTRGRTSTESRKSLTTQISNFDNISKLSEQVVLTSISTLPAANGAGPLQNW
UniProt O43613, whole entry: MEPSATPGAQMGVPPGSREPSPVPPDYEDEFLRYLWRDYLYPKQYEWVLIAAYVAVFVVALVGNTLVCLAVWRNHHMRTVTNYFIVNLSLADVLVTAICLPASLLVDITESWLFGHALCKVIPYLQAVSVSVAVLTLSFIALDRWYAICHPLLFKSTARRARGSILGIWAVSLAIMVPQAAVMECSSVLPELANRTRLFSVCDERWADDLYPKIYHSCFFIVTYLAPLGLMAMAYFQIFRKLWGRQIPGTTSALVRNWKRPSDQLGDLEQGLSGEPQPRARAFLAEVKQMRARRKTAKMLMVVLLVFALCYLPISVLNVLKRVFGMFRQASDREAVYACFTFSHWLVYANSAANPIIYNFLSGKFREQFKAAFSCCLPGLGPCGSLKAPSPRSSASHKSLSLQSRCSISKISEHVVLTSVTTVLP

What was measured:
[1] = biological target: T1, OX2 receptor (Homo sapiens, UniProt O43614); test: Orexin target function test (Cisbio HTRF IP-one), CHO-K1-OX2 cells, antagonism of EC80 Orexin 2 receptor agonist; format: cell-based
T1 construct: host or cells: CHO-K1

[2] = biological target: T2, OX1 receptor (Homo sapiens, UniProt O43613); test: Orexin target function test (Cisbio HTRF IP-one), CHO-K1-OX1 cells, antagonism of EC80 Orexin A; format: cell-based
T2 construct: host or cells: CHO-K1

[3] = system: SD rats; test: Autonomous activity of rats; conditions: rat, in vivo

For `Cc1cc(C)nc(N2CC3CN(C(=O)c4c(F)cccc4-n4nccn4)CC3C2)n1` (centres unmarked) [Seltorexant, reference compound], the IC50 [1] was 26 nM, the IC50 [2] was 1100 nM and the “Activity distance (mm)” value ([3]; 10 mg/kg) was 58753.65±13055.81 mm. The “Inhibition rate(%)” value ([3]; 10 mg/kg) was 17.29%, the “Activity distance (mm)” value ([3]; 30 mg/kg) was 54020.96±5166.53 mm and the “Inhibition rate(%)” value ([3]; 30 mg/kg) was 23.95* %. For the same compound, the “Activity distance (mm)” value ([3]; 50 mg/kg) was 31529.21±7233.98 mm and the “Inhibition rate(%)” value ([3]; 50 mg/kg) was 55.61 * %.

Marks after values point to notes of the source that are not given here.
